Here are results for 3 substances from publication PMC4498498.

In one data set the test system is CC(C)=O. The data set can be described thus: purified protein. To be noted: 0.2 mM NADPH, 50 mM Tris-HCl pH 7.5, 1 mM DTT, 25°C.
A further data set concerns CCC(C)=O. The data set can be described thus: purified protein. Conditions: 0.2 mM NADPH, 50 mM Tris-HCl pH 7.5, 1 mM DTT, 25°C.

As for “CaADH (Clostridium autoethanogenum DSM 10061; S199R)”, in the data set with CC(C)=O, the Michaelis constant (Km) (commonly the substrate concentration at which the rate is half of its maximum) is 1100 ± 200 µM; the kcat (in general, the number of substrate molecules converted per active site and unit of time at saturation) came to 89 s⁻¹; the kcat/Km – broadly, the turnover number divided by the Michaelis constant – was 81000 M⁻¹ s⁻¹.

Regarding “CaADH (Clostridium autoethanogenum DSM 10061; S199A)”, in the data set with CCC(C)=O, the Km was 800 ± 100 µM, the kcat came out at 46 s⁻¹ and the kcat/Km worked out at 61000 M⁻¹ s⁻¹. In addition, in the data set with CC(C)=O, the Km is 900 ± 100 µM, the kcat came out at 60 s⁻¹ and the kcat/Km came out at 67000 M⁻¹ s⁻¹.

Take “CaADH (Clostridium autoethanogenum DSM 10061; G198D/P201E/S199V)”: in the data set with CC(C)=O, the Km worked out at 600 ± 100 µM and the kcat amounted to 39 ± 1 s⁻¹.
